{"sequences": {"note": "Amino acid sequences for entries named in this document (tags omitted). Residues count along the entry.", "UniProt O44074, 22-282": "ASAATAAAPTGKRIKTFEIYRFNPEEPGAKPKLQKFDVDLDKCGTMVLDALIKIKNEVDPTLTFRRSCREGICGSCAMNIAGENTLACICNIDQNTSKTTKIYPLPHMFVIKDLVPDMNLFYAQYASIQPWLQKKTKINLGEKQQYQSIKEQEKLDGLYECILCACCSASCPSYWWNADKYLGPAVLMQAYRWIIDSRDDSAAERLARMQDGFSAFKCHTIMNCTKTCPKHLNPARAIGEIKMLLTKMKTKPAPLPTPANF", "UniProt P92506, 32-188": "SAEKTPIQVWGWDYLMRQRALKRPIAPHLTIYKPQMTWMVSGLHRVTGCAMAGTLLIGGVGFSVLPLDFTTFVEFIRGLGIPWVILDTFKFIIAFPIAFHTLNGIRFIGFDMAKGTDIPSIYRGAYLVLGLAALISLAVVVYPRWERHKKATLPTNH", "UniProt P92507, 26-156": "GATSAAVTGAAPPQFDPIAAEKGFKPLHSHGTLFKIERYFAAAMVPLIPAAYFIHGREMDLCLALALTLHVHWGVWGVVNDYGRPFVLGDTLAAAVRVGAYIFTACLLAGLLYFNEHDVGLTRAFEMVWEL"}, "source": "paper PMC4519900", "about": "(International Journal of Molecular Sciences, 2015)", "biological_target": "T1, A. suum QFR (complex II) (Ascaris suum, UniProt O44074+P92506+P92507)", "T1 construct": "from tissue; host or cells: adult Ascaris suum muscle, mitochondrial fraction", "assay": "SQR activity assay of A. suum complex II (QFR) in mitochondrial fraction, UQ2 consumption at 278 nm", "type": "biochemical", "conditions": "A. suum QFR versus porcine SQR", "data": [{"smiles": "CC(C)Oc1cccc(NC(=O)c2ccccc2C(F)(F)F)c1", "note": "[flutolanil, N-[3-(isopropyloxy)phenyl]-2-(trifluoromethyl)benzamide, reference compound]", "values": [{"measurement": "selectivity index (IC50 porcine SQR / IC50 A. suum QFR)", "result": "approximately 790 folds"}]}]}
